Measured values as given in article PMC9594040, “Structure-Based Discovery of Negative Allosteric Modulators of the Metabotropic Glutamate Receptor 5” (ACS Chemical Biology, 2022).

Chains of the proteins cited; added tags and fusions are not shown. Residues count along the entry.
UniProt P41594, 21-1212: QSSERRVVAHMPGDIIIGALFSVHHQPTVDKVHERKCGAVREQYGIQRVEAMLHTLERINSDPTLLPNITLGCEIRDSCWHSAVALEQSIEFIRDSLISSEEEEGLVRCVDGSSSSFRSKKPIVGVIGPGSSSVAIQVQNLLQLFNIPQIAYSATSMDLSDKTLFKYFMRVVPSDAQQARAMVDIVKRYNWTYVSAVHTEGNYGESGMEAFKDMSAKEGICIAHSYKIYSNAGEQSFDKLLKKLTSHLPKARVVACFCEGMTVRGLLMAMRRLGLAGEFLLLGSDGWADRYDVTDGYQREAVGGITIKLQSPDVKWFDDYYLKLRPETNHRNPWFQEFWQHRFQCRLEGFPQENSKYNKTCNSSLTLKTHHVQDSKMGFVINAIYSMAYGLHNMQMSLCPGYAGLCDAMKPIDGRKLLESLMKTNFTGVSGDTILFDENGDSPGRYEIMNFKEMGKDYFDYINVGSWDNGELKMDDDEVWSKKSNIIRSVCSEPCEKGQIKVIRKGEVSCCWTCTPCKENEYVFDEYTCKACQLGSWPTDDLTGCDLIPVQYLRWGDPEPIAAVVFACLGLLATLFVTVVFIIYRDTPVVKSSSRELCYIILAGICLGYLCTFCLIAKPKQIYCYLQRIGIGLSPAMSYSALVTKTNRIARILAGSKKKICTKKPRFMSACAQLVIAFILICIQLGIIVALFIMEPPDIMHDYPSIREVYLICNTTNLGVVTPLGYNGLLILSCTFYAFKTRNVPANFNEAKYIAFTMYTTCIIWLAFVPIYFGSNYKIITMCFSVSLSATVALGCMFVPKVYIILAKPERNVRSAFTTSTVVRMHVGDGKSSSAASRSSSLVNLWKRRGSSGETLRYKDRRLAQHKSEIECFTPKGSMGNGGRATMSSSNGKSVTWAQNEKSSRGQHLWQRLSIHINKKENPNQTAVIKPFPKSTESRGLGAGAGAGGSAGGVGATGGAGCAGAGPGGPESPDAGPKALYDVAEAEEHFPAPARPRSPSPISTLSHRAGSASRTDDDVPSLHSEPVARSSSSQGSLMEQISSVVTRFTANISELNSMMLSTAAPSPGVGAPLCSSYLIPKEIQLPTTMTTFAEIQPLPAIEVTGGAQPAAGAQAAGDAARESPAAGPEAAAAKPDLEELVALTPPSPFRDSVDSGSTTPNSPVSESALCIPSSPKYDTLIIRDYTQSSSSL

Columns and labels:
[1] = target: T1, human mGlu5 (Homo sapiens, UniProt P41594); assay: Radioligand displacement assay (radiolabeled MPEP) on membranes of HEK293 cells stably expressing mGlu5; settings: mean ± SEM of two experiments
[2] = target: T1, human mGlu5; assay: IP1 functional assay, quisqualate-stimulated HEK293 cells expressing mGlu5; assay type: cell-based; design: expressed in transfected cells; host or cells: HEK293 cells, transient electroporation; glutamate transporter EAAC1 co-transfected; settings: quisqualate 50 nM; mean ± SEM of 3–5 independent experiments
Description: Figure 3 Evaluation of compounds F1 and F2 in functional assays. Representative dose–response curve of compounds (a) F1 and (b) F2 in an IP1 functional assay. […] Each point was performed in triplicate and is shown as a mean ± SEM of 3–5 independent experiments.
HEK293 cells were cultured in Dulbecco’s modified Eagle’s medium (DMEM) supplemented with 10% fetal bovine serum (FBS) and were maintained at 37 °C in a humidified atmosphere with 5% CO2. Transient transfection was performed using electroporation in a volume of […] with […] of plasmid encoding SNAP-tag human mGlu5, […] plasmid encoding for the glutamate transporter EAAC1 plasmids, and 10 million of HEK293 cells in electroporation buffer (50 mM K2HPO4, 20 mM CH3COOK, and 20 mM KOH, pH 7.4). After electroporation (250 V, 0.5 mF, Bio–Rad Gene Pulser electroporator; Bio-Rad Laboratories, Hercules, CA), cells were resuspended in 10 mL of DMEM supplemented with 10% FBS and seeded for 24 h into black, clear-bottom 96-well culture plates (Greiner Bio-one), pretreated with Poly-L-Ornithine 1X, at a density of 100,000 cells per well. […] The IP1 accumulation assay kit (Cisbio Bioassays, PerkinElmer) was used for the direct quantitative measurement of IP1. […] Terbium cryptate fluorescence and tr-FRET signals were measured at 620 and 665 nm, respectively, using a PheraStar fluorimeter (BMG Labtech).

`Cc1cccc(C#Cc2ccccc2)n1` [MPEP, 2-Methyl-6-(Phenylethynyl)-Pyridine, reference compound] gave a Ki [1] of 0.0076 ± 0.0001 µM and an IC50 [2] of 0.0661 µM.
